Antibody variant affinities, Ab-14 light chain, assay B

The target is the same throughout: PDVDLGDISGINAS, from the HR2 region of SARS-CoV-2 spike.

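The parent was found by panning a naive human phage display library on the peptide. Designed CDR sequences, proposed from the first random library and measured here. Their group label is 14L_En_HC (En: ensemble of fine-tuned language models; HC: hill climbing; a sequence that several methods proposed may carry one label only). The scFvs were displayed on barcoded MATa yeast, the peptide on MATalpha yeast. The frequency of each diploid, read from paired DNA barcodes, reflects how well the two displayed proteins bind. Each replicate has its own calibration line, from reference interactions of the BCL2 family. Each pool was mated in six replicate cultures.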

Ab-14 is the parent antibody, in scFv form: VH, then the linker GGGGSGGGGSGGGGS, then VL. The heavy chain is unchanged in all variants.
VH: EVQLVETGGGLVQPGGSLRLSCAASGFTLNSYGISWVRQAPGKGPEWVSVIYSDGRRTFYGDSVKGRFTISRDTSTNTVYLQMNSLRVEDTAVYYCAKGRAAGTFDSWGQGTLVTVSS
VL: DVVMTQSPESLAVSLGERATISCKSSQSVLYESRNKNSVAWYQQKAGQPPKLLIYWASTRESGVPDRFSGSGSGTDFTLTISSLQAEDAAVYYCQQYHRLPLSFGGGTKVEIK

Variants are written as CDR1, CDR2 and CDR3 of the light chain (limits as in the source). Parent: KSSQSVLYESRNKNSVA, WASTRES, QQYHRLPLS.
Affinities are written as log10 Kd with Kd in nM; a lower number is a better binder.
An entry "n.d." has no value in the source: the pair was not observed among the diploids in that replicate. This suggests poor binding but is not conclusive.
The authors' rule: three or more of the six replicates give a measured affinity, fewer mean a poor binder.
Background: pairings of all light chain designs with three empty control strains gave a value in 4% of cases (median 2.64, 5th percentile 1.59). Values in that range, when seen in few replicates, are hard to tell from nonspecific mating. For each scFv, signals with the empty controls are counted beside the result, with their mean in brackets.
Values of this round are not directly comparable with the first-round values of the same sequences.
The parent sequence was in this pool as ten entries: three were never detected, three once, and four in most replicates, with averages from 0.34 to 2.37.

CDR-L1,CDR-L2,CDR-L3,"log10 Kd, replicates",control signals
TVSQVQGMLSHNKNSVA,DMNTRGS,QQYDRLPLS,n.d. / n.d. / n.d. / n.d. / n.d. / n.d.,0/18
HIAQSVGMTSFNKNSVA,ENSTREN,QQYDRLPLS,1.52 / 1.46 / 2.06 / 1.21 / 1.50 / 1.45,1/18 (2.76)
KLYQMTGIESHATNSLA,DANRRED,QQYHRLPLS,0.25 / 0.20 / -0.08 / -0.25 / 0.19 / -0.04,2/18 (2.38)
KIGQSMAMTSHHINSVA,QSTTREE,QQYNRLPLS,-0.06 / -0.02 / -0.07 / 0.04 / -0.05 / 0.11,1/18 (2.74)
KLGGVTSYEMQNKNSVA,QMTTRES,QQYHRLPLS,-0.52 / -0.68 / -0.77 / -0.93 / -0.81 / -0.71,1/18 (2.34)
KIGHGLTTESRNKNSVA,QTETRVS,QHYHRLPLS,0.74 / 0.74 / 0.67 / 0.60 / 0.30 / 0.70,1/18 (2.49)
SIYDATRMEQRNKNPIA,DVSNRPS,QQYDRLPLS,0.71 / 0.76 / 0.55 / 0.60 / 0.54 / 0.42,0/18
KLSMSMLMESRNKNSVA,ENSTREN,QHYHRLPLS,n.d. / n.d. / n.d. / n.d. / n.d. / n.d.,0/18
KISYMGEHFSTNHSAIA,QASTRET,QQYHRLPIS,0.91 / 0.64 / 0.66 / 0.68 / 0.67 / 0.69,2/18 (2.55)
KISQMSTIESITHNSIA,QTSTRES,QQYDRLPLS,0.74 / 0.87 / 0.58 / 0.36 / 0.51 / 0.67,2/18 (3.06)
KLSIFHQVNSINKSNVA,EMVTRES,QQYDRLPLS,1.27 / 1.74 / 0.80 / 1.64 / 1.02 / 0.68,0/18
KISMLVNFLGKNMNSVA,QMSTRES,QQYDRLPLS,0.98 / 0.86 / 1.24 / 0.94 / 1.05 / 0.71,1/18 (2.11)
HISPSFMVESKLKNSVA,QTETRVP,QQYDRLPLS,0.12 / 0.79 / 0.58 / 0.38 / 0.74 / 0.63,1/18 (1.94)
TISQSAHMESHNKNSVA,DLNVRGS,QQYDRLPLS,2.35 / 1.36 / 0.82 / 1.23 / 1.09 / 1.79,0/18
TISYSALMTGLNRNSVA,QAEERLT,QQYHRLPLS,1.44 / 1.47 / 1.43 / 1.33 / 2.09 / 1.93,0/18
KLTMMYQHTSINKNNIA,ERSTREE,QQYHHLPLS,0.40 / 0.52 / 0.21 / 0.13 / 0.34 / 0.69,0/18
KLSMSMRFLTLEKNSIA,ELVTRMS,QQYHRLPLS,n.d. / n.d. / n.d. / n.d. / n.d. / n.d.,0/18
TLGQSTMVESYNKNSVA,QASTRCE,QDYHRLPLS,2.38 / 2.04 / 2.25 / 2.51 / 3.08 / 2.57,0/18
TISQMWFIESKNRNNVA,EMTTREN,QDYDRLPLS,n.d. / 2.17 / 1.13 / n.d. / n.d. / 2.37,0/18
SLAESAHLETRNKNSVA,DNTTRES,QHYDRLPLS,2.70 / n.d. / 2.31 / 1.42 / 1.65 / 1.91,4/18 (2.74)
KISQLVNFLGKNKNSVA,QMSTREN,QQYDRLPLS,0.41 / 0.62 / 0.53 / 0.10 / -0.13 / 0.88,0/18
HISMSMNWLTRNKNSIA,EESTRED,QQYHRLPLS,0.25 / 0.03 / -0.11 / -0.15 / -0.21 / 0.00,5/18 (2.86)
MMSQLTYMGSRARNAVA,QAETRVN,QQYHHLPLI,1.31 / 1.37 / 1.18 / 0.77 / 1.19 / 1.14,3/18 (2.49)
TLTQSVAMESHNKNSVA,DLSTRGS,QQYHRLPLS,0.08 / -0.02 / 0.05 / -0.06 / -0.08 / 0.31,1/18 (3.80)
TVSQVHEMLSKNKNSVA,DMNTRES,QQYDRLPLS,0.47 / 0.39 / -0.12 / 0.10 / 0.34 / 0.11,1/18 (1.47)
KISQMYRYEQQNSSSIA,EANMREQ,QSYHRLPLS,n.d. / 2.38 / 2.10 / 2.84 / 1.70 / 2.57,0/18
KLSATYRYESQNKNSIA,EMTTREE,QCYHRLPLS,1.21 / 1.53 / 0.84 / 1.27 / 1.18 / 2.79,0/18
NLYQSMNFLGRVMNSIA,DASTVPD,QQYHRLPLS,1.03 / 0.77 / 0.40 / 0.38 / 0.52 / 1.30,1/18 (1.92)
TISMSMNWLNRNKNSIA,EESTRED,QQYDRLPLS,0.25 / n.d. / n.d. / n.d. / 0.28 / 0.12,0/18
SLMQVGGYETNNHNSIA,DLRTRES,QQYHRLPLS,0.59 / 0.45 / 0.36 / 0.29 / 0.30 / 0.65,2/18 (3.04)
HISQMWMLESKNKNNVA,EESTRED,QSYFRLPLS,-0.01 / 0.16 / 0.18 / -0.34 / 0.13 / -0.19,0/18
MFSQLTYTGSRTRNAVA,QASTREN,QQYHHLPLM,0.61 / -0.22 / -0.08 / -0.07 / 0.64 / n.d.,0/18
HISQSVGMTVRNKNSVA,ENSTRED,QQYDRLPLS,2.22 / 2.04 / n.d. / 3.39 / n.d. / 2.40,0/18
ALSQSMDMTSRNHNSVA,DLSTREN,QQYHRLPLS,-0.28 / -0.33 / -0.16 / -0.48 / -0.50 / -0.26,0/18
TLTQVQGMESHNKDSVA,DLSTRGS,QQYHRLPLS,1.96 / 1.24 / n.d. / 0.74 / 0.76 / 1.00,1/18 (1.61)
MISDTGLHDSRLQNSVA,NNSTREA,QQYHRLPLS,2.28 / 2.15 / 3.10 / 2.38 / 1.51 / 2.76,3/18 (3.08)
KLSMSVRMESFVKDNVA,ENSTRED,QDYHRLPLS,n.d. / 1.98 / n.d. / 2.91 / n.d. / 2.94,0/18
KLLQEVTGHSRNRNSVA,HNSTRED,QQYDRLPLS,n.d. / n.d. / n.d. / 2.79 / 3.14 / n.d.,0/18
KLRESIHVESKQKNNVA,DNSTREY,QDYHRLPLS,n.d. / 1.58 / 1.74 / 3.47 / 2.45 / 1.87,2/18 (2.95)
QLSESAHFESRKKNSVA,ENSTRES,QQYDHLPLS,1.13 / 1.73 / 1.24 / 0.90 / 1.73 / 1.96,6/18 (2.62)
TVSQVHEMLSRNKNSVA,DANCRES,QQYDRLPLS,0.63 / 0.47 / -0.01 / 0.48 / 0.47 / 0.64,1/18 (2.37)
KISGMSTIESITHNSVA,QTSTRES,QQYDRLPLS,0.46 / 0.40 / 0.42 / 0.33 / 0.34 / 0.59,1/18 (2.92)

The last 5 entries again:

CDR-L1,CDR-L2,CDR-L3,"log10 Kd, replicates",control signals
KLLQEVTGHSRNRNSVA,HNSTRED,QQYDRLPLS,n.d. / n.d. / n.d. / 2.79 / 3.14 / n.d.,0/18
KLRESIHVESKQKNNVA,DNSTREY,QDYHRLPLS,n.d. / 1.58 / 1.74 / 3.47 / 2.45 / 1.87,2/18 (2.95)
QLSESAHFESRKKNSVA,ENSTRES,QQYDHLPLS,1.13 / 1.73 / 1.24 / 0.90 / 1.73 / 1.96,6/18 (2.62)
TVSQVHEMLSRNKNSVA,DANCRES,QQYDRLPLS,0.63 / 0.47 / -0.01 / 0.48 / 0.47 / 0.64,1/18 (2.37)
KISGMSTIESITHNSVA,QTSTRES,QQYDRLPLS,0.46 / 0.40 / 0.42 / 0.33 / 0.34 / 0.59,1/18 (2.92)

Values reported by Li et al. 2023, doi:10.1038/s41467-023-39022-2 (FLAb copy).